The series concerns Canis familiaris. In words: Oral diuretic activity was evaluated by measuring Cl- excretion in dog at 1 mg/kg g after ip administration (0-6 hr). To be noted: in vivo. Format: ADME, organism-based, Canis lupus familiaris, Urine. Details: dose 1 mg/kg, route intraperitoneal.

Take `NS(=O)(=O)c1cc(C(=O)O)c(NCc2ccco2)cc1Cl` [FUROSEMIDE]: the Diuretic activity is reported as 16.4.

For the origin of these results see ChEMBL document CHEMBL1121573, “2-(Aminomethyl)phenols, a new class of saluretic agents. 1. Effects of nuclear substitution” (J Med Chem, 1980).
